Data as given in PubChem BioAssay AID1779 (Sanford-Burnham Center for Chemical Genomics, 2009).
The entries are a selection whose mix differs from that of the whole data set. Activity calls are given as the source filed them. Cut-off read from the data, not from the text of the source: active = inhibition above about 50%; inactive = the rest.

Sequences of proteins named here, by UniProt entry; tags and fusion partners are left off.
UniProt Q9Y2R2, whole entry, looked up: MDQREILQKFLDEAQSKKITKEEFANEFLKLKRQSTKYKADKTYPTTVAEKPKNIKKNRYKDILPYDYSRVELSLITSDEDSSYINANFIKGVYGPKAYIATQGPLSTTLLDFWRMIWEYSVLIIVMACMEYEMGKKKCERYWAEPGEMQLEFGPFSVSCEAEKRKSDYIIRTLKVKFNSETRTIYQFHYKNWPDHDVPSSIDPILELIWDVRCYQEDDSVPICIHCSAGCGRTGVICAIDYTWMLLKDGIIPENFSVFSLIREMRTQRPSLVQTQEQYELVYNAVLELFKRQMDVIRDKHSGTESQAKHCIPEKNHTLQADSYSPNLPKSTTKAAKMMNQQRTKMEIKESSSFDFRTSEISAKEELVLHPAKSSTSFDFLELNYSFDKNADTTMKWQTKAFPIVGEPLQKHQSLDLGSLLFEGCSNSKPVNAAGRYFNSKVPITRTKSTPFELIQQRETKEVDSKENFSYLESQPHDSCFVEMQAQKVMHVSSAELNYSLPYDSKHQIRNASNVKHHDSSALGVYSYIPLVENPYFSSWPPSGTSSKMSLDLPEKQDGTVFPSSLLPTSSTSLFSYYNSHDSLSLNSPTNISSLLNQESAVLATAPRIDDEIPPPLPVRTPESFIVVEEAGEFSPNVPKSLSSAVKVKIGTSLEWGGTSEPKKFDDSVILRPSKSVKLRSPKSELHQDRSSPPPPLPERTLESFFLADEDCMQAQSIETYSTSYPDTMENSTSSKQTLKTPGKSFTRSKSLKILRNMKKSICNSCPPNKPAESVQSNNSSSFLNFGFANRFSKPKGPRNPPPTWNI

molecular target: Tyrosine-protein phosphatase non-receptor type 22 (Homo sapiens) (UniProt Q9Y2R2); assay: PTPN22 lymphoid phosphatase activity blockers – biochemical, fluorescence intensity, uHTS (AID 1779); settings: recombinant LYP phosphatase, at 11.5 µM, hits give high values;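 note: plate controls were vehicle with enzyme for no effect and no enzyme for full effect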

Structure (SMILES) | inhibition
CCC(=O)N1C2C3N(C(=O)CC)C1C1N(C(=O)CC)C(C(N1C(=O)CC)N3C(=O)CC)N2C(=O)CC | inactive: -7.5%
O=C(OC1CN2CCC1CC2)c1ccccc1 (stereo not given) | inactive: -7.8%
O=C(NC1CCS(=O)(=O)C1)NP(=S)(Oc1ccccc1)Oc1ccccc1 (stereo not given) | inactive: -5%
CCNC(=S)/N=C(\N)N[N+](=O)[O-] | inactive: -4.5%
Cc1ccc(NP(=O)(Oc2cccc(C)c2)Oc2cccc(C)c2)nc1 | inactive: -6.2%
CCOC(=O)NC(Sc1ccccc1)C(Cl)(Cl)Cl (stereo not given) | inactive: -13.5%
c1ccc(-c2nn[nH]n2)c(-c2nn[nH]n2)c1 | inactive: 0.6%
O=[N+]([O-])c1ccc2c(c1)nnn2O | inactive: -2.4%
CCOP1(=S)c2c(C)nn(CCC#N)c2N=C(c2ccc(F)cc2)N1C (stereo not given) | inactive: -3.8%
CN(C(=O)Cc1ccccc1)[C@@H]1CC[C@]2(CCCO2)C[C@H]1N1CCCC1 | inactive: -0.9%
NC(=O)Nc1ccc([As](=O)(O)O)cc1 | inactive: -6.8%
O=C(O)COc1ccc([As](=O)(O)O)cc1[N+](=O)[O-] | inactive: 0.6%
Nc1ccccc1[As](=O)(O)c1ccccc1 | inactive: -10.5%
CS(=O)(=O)c1cc([N+](=O)[O-])c2no[n+]([O-])c2c1 | inactive: -4.4%
O=P(Nc1nccs1)(Oc1ccccc1)Oc1ccccc1 | inactive: -5.5%
O=P(Nc1nccs1)(c1ccccc1)c1nc2ccccc2s1 (stereo not given) | inactive: 5.2%
CCOP1(=S)c2c(C)nn(CCC#N)c2N=C(c2ccccc2F)N1C (stereo not given) | inactive: -6.1%
CCOP(=O)(Nc1cccc2ccccc12)OCC | inactive: -6.3%
COc1cc(C2NCCC3(OCCO3)C2(C)C)cc(OC)c1OC (stereo not given) | inactive: -1.8%
CCCOP(=S)(Nc1nc(N)cc(=O)[nH]1)OCCC | inactive: -0.8%
Cc1ccc(NCCc2c([N+](=O)[O-])cc([N+](=O)[O-])cc2[N+](=O)[O-])cc1 | inactive: 2.9%
Nc1cccc2c([As](=O)(O)O)cccc12 | inactive: -4%
Cc1cccc(OCC(=O)OC2CN3CCC2CC3)c1 (stereo not given) | inactive: -1.7%
O=[As](O)(c1cccc(O)c1)c1cccc(O)c1 | inactive: -4.8%
CS(=O)(=O)c1ccc(Cl)c(NC(=O)COC(=O)C(O)(c2ccccc2)c2ccccc2)c1 | inactive: -9.7%

Structure (SMILES) | inhibition
O=[As](O)(O)c1cccnc1 | inactive: -7.5%
COc1cc(C(=O)NCC2(N3CCOCC3)CCCCC2)cc(Cl)c1OC(C)C | inactive: 2.1%
O=C(OC1CN2CCC1CC2)c1ccc(Cl)cc1 (stereo not given) | inactive: 0.1%
O=[As](O)(c1ccccc1Br)c1ccccc1Br | inactive: -7.3%
CN(C(=O)Cc1ccc(Cl)c(Cl)c1)[C@@H]1CCCC[C@H]1N1CCCC1 | inactive: -4%
CC(C)/C=N\N=C(\N)N[N+](=O)[O-] | inactive: -8%
CC(C)(C)C(=O)NC(Sc1ncccn1)C(Cl)(Cl)Cl (stereo not given) | inactive: -9.3%
Clc1n[nH]nc1-c1nn[nH][15n]1 | inactive: -4.8%
CCOP(=O)(Nc1ccc(C)cn1)OCC | inactive: -4.6%
CCOP(=O)(NC(=NC(C)c1ccccc1)NC(C)c1ccccc1)OCC (stereo not given) | inactive: -8.7%
CCC1=CC2Cc3nc4ccc(Cl)cc4c(N)c3C(C1)C2 (stereo not given) | inactive: -11.3%
O=P1(Nc2ccccn2)COc2ccccc2OC1 | inactive: -4.7%
Cc1ccc(OCC(=O)OC2CN3CCC2CC3)cc1 (stereo not given) | inactive: -1.2%
O=[As](O)(c1cccs1)c1cccs1 | inactive: -4.3%
O=P1(Nc2ccc(Br)cn2)COc2ccccc2OC1 | inactive: -4.7%
Nc1cccc([As](=O)(O)c2ccccc2)c1 | inactive: -10.6%
O=P1(Nc2ncccn2)COc2ccccc2OC1 | inactive: -1%
O=C(/C=C/c1ccccc1)OC1CN2CCC1CC2 (stereo not given) | inactive: -4.9%
CN(C)C1(CNC(=O)c2ccc(S(C)(=O)=O)cc2)CCCCC1 | inactive: -2%
Cc1ccc(C(=O)OC2CN3CCC2CC3)cc1 (stereo not given) | inactive: -1.7%
CC1CCC(C(C)C)C(OP(=O)(Nc2ccccn2)c2ccccc2)C1 (stereo not given) | inactive: -0.7%
Cc1nn(-c2ccccc2)c2c1P(=O)(N1CCOCC1)N(C)C(c1ccccc1)=N2 (stereo not given) | inactive: -4.6%
O=[N+]([O-])c1ccc(Nc2ccc(Oc3ccc([N+](=O)[O-])cc3[N+](=O)[O-])cc2)c([N+](=O)[O-])c1 | inactive: 0.7%
Cc1cc(SC(NC=O)C(Cl)(Cl)Cl)ncn1 (stereo not given) | inactive: -7%
O=P(Nc1ccccn1)(c1cccc2ccccc12)c1cccc2ccccc12 | inactive: 2.4%

Structure (SMILES) | inhibition
CCOC(=O)Nc1cccc([As](=O)(O)O)c1 | inactive: -7.6%
Cc1cc(SC(NC(=O)c2ccccc2)C(Cl)(Cl)Cl)nc(C(C)C)n1 (stereo not given) | inactive: -11.1%
CCCCOc1ccc(C(=O)NCC2(N3CCCCC3)CCCCC2)cc1OC | inactive: -14.6%
CCOC(=O)Nc1ccc([As](=O)(O)O)c(O)c1 | inactive: -7.7%
CCC(C)N(CC(C)C)C(=S)SC(NC(C)=O)C(Cl)(Cl)Cl (stereo not given) | inactive: -7.2%
CCOC(=O)c1ccc(NC(=O)C(C)(CCl)SC)cc1 (stereo not given) | inactive: -5.2%
O=C(OC1CN2CCC1CC2)c1cccc([N+](=O)[O-])c1 (stereo not given) | inactive: -6.7%
O=C(Nc1ccncc1[N+](=O)[O-])c1ccc([N+](=O)[O-])cc1[N+](=O)[O-] | inactive: -6.1%
O=C(COc1ccccc1)OC1CN2CCC1CC2 (stereo not given) | inactive: 1%
COP1(=S)c2c(C)nn(CCC#N)c2N=C(c2ccc(F)cc2)N1C (stereo not given) | inactive: -8%
COc1ccc(N/C(=N/P(=O)(N2CCOCC2)N2CCOCC2)N2CCOCC2)cc1 | inactive: -5.3%
COc1cc(I)ccc1[As](=O)(O)O | inactive: -5%
COc1ccc2nc(NP(=O)(c3ccccc3)c3ccccc3)sc2c1 | inactive: 1.7%
Cc1cc(=O)[nH]c(N[N+](=O)[O-])n1 | inactive: 0.9%
O=C(OC1CN2CCC1CC2)C12CC3CC(CC(C3)C1)C2 (stereo not given) | inactive: -6.5%
Cc1c2c(nc3ccccc13)SC(C(Cl)Cl)C2 (stereo not given) | inactive: 0%
O=[N+]([O-])c1cc([N+](=O)[O-])c(-c2ccn[nH]2)s1 | inactive: 0.1%
CC(C)NC(=O)NP(=O)(Oc1ccccc1)Oc1ccccc1 | inactive: -1.8%
CCN(CC)C(=S)SC(NC=O)C(Cl)(Cl)Cl (stereo not given) | inactive: -1.9%
CC(C)c1ccc(OP(=O)(Nc2ccccn2)Oc2ccccc2F)cc1 (stereo not given) | inactive: -1.6%
ClCCSc1nnc(-c2cccnc2)o1 | inactive: -6.6%
Cc1ccc2nc3c(c(C)c2c1)CC(C(Cl)Cl)S3 (stereo not given) | inactive: 0%
Cc1ccc(OP(=O)(Nc2ccc([N+](=O)[O-])cn2)Oc2ccc(C)cc2)cc1 | inactive: -2.3%
O=[As](O)(c1ccc(O)cc1)c1ccccc1O | inactive: -13.1%
C[As](=O)(O)c1cccc(C(=O)O)c1 | inactive: -6.8%
